By UniProt entry, the sequences of proteins in these tests, tags left out.
UniProt P27338, whole entry: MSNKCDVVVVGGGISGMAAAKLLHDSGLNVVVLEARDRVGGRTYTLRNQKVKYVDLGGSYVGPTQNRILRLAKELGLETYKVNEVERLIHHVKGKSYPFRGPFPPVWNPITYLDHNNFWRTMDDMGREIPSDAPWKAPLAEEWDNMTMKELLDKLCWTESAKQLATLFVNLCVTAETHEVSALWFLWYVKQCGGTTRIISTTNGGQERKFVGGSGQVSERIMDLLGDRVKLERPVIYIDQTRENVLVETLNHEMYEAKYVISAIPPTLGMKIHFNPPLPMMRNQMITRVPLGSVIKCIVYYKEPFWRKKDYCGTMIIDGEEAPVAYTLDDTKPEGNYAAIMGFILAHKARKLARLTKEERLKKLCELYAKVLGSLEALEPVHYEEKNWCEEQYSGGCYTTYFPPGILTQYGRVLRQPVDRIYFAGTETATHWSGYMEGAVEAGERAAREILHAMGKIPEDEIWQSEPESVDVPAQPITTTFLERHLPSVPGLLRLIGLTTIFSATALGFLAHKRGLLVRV

According to publication PMC6364133, “Selectivity of Dietary Phenolics for Inhibition of Human Monoamine Oxidases A and B” (BioMed Research International, 2019):

Target: MAO-B (Homo sapiens, UniProt P27338)
Assay: Inhibition mechanism studies (competition, time dependence) with MAO-B
Assay type: biochemical
Set-up: purchased BD Biosciences (San Jose, CA) or Corning Discovery Labware (Woburn, MA)
Conditions: 0.5 μM, preincubation 0-60 min, then kynuramine 20 μM
Experimental: To determine time dependence, the protocol by Obach et al. was followed. […] Tranylcypromine was used as a positive control for time-dependent inhibition, and DMSO (0.9% v/v) was used as a negative control. After adding kynuramine, the enzymes were incubated for 30 minutes before processing as described above.
Time depended data were analyzed by fitting either straight line or one-phase exponential decay models to the data in GraphPad Prism v5.

Structure (SMILES): N[C@@H]1C[C@H]1c1ccccc1 (racemic) [tranylcypromine, reference compound]
- plateau inhibition, MAO-B: 85%
